Among the data in PubChem BioAssay AID1645853 (Buhrlage Lab, Dana-Farber Cancer Institute and Novartis …, 2021) are inhibition values, retold here.

Amino acid sequences for entries named in this document (tags omitted). A change or cut given only in a name is not applied to a line headed by its entry.
UniProt P40818: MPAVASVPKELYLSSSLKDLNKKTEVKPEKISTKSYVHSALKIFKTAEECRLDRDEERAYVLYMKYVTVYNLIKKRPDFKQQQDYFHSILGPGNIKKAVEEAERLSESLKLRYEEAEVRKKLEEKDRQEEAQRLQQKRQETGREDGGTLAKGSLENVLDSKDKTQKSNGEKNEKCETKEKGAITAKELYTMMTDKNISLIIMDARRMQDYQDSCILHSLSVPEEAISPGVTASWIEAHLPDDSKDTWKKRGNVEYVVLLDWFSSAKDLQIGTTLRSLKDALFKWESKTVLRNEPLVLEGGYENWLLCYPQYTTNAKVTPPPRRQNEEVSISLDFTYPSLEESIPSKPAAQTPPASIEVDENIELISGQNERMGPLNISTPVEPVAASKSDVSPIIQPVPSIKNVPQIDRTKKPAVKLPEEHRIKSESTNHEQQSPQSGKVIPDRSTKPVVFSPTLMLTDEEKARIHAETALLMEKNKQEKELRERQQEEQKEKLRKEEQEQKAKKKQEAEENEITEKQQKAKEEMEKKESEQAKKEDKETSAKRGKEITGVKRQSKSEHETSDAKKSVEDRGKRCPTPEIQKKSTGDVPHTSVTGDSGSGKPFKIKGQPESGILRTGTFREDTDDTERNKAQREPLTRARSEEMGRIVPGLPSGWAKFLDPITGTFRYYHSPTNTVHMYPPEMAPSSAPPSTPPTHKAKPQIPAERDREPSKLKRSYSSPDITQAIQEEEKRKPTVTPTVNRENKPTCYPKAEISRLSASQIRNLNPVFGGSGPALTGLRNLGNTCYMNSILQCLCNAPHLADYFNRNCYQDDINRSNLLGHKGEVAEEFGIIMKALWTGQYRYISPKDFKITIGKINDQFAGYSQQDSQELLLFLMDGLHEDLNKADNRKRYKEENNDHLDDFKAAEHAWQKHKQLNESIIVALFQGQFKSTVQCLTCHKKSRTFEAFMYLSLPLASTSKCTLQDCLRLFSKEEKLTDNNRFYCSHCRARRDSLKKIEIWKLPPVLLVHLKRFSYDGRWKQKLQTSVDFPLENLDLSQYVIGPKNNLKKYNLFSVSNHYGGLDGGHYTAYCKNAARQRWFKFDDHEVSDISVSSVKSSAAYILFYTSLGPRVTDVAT

Each structure is given as a SMILES string. Only a part is listed here, and it is no random draw. Activity calls are given as the source filed them. Rule as the data show it: active = inhibition above about 30%; inactive = the rest.

The assay concerns the target Ubiquitin carboxyl-terminal hydrolase 8 (Homo sapiens) (UniProt P40818). The assay can be described thus: inhibitors of human USP8 deubiquitinase (AID 1645853). To be noted: purified USP8, Ub-rhodamine cleavage fluorescence, 30 min; at 20 µM; active compounds read high.
As to `N#Cc1cccc(C(=O)N(Cc2cccnc2)C2CCN(CCc3ccccn3)CC2)c1`, the inhibition was inactive: 0.77%. For the compound `CS(=O)(=O)c1ccc(C(=O)N(Cc2ccco2)C2CCN(CCc3ccccn3)CC2)cc1`, the inhibition was inactive: -12.3%. Turning to `CS(=O)(=O)c1ccc(C(=O)N(Cc2cccnc2)C2CCN(CCc3ccc(Cl)cc3)CC2)cc1`, the inhibition is inactive: -47.7%. Turning to `COc1ccc(CCN2CCC(N(Cc3ccco3)C(=O)c3ccc(S(C)(=O)=O)cc3)CC2)cc1`, the inhibition is inactive: -8.79%. The result for `CN1C(=O)C2C(NC(=NCc3ccco3)N2CCc2ccccc2)N(C)C1=O` (stereo unspecified) reads inactive: -12.4%; that for `N#Cc1cccc(C(=O)N(Cc2ccco2)C2CCN(CCc3ccccn3)CC2)c1`, inactive: -7.3%. With `N#Cc1cccc(C(=O)N(Cc2ccco2)C2CCN(CCc3ccc(Cl)cc3)CC2)c1`, the inhibition was inactive: -14.1%.

Consider `Cc1[nH]c2c(N(C(=O)Nc3ccccc3)C3CCN(Cc4ccccc4)CC3)cccc2c1C`, for which the inhibition was inactive: -6.05%. The result for `COc1ccc(CCN2CCC(N(Cc3cccnc3)C(=O)c3cccc(C#N)c3)CC2)cc1` reads inactive: -14.2%. In the case of `O=C(COC(=O)C(O)(c1ccccc1)c1ccccc1)NCc1ccc2c(c1)OCO2`, the inhibition was inactive: -11.2%. As to `O=C(c1ccc2c(c1)OCO2)N(Cc1ccco1)C1CCN(CCc2ccccn2)CC1`, the inhibition was inactive: -14.1%.

Usually inhibition stands for the relative decrease from the control value, in per cent.
